# Bioassay records (PubChem)
# Only some compounds are listed: those with a hit (about 2.3% of all), similar ones and a draw of the others.
# ARFGAP1 inhibitor: inhibitors of rat ARFGAP1; inhibition, % at 16.5 µM; Arfgap1-stimulated ARF1 GTP hydrolysis, GDP FP detection; 360,000 tested, 0.26% active; Q62848; AID 651572;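 active = inhibition above a per-plate limit, mean inhibition of low control wells plus 3 SD, cut at about 25% in these data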;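 note: 0% = DMSO wells with enzyme and 100% = wells lacking Arfgap1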
#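 System: truncated rat Arfgap1 GAP domain / Medium: HEPES-based buffer, pH 7.5 / Also added: N-terminally truncated human ARF1-GTP substrate / Incubation: enzyme reaction 120 min at 25 °C after 20 min preincubation / Measured by: FP of antibody-bound GDP Alexa 633 tracer, ex 620/em 688 nm / Replicates: singlicate, each compound tested once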
# ASAP1 inh: inhibitors of human ASAP1 ArfGAP activity; Q9ULH1; ASAP1-stimulated ARF1 GTP hydrolysis, GDP FP detection; inhibition, % at 16.5 µM; 360,000 tested, 0.19% active; in the data active = inhibition above about 25%;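 note: 0% = vehicle with enzyme and substrate and 100% = no enzyme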
# MC4R antag cAMP: human MC4R antagonism in cAMP assay; P32245; MC4R-expressing cells, MTII-stimulated cAMP, LANCE TR-FRET; inhibition, % at 6.5 µM; 360,000 tested, 0.48% active;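 active = inhibition above its plate's cutoff, the mean of tested wells on that plate plus 3 SD, cut at about 29% in these data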;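 note: 0% = Melanotan II alone and 100% = Melanotan II plus saturating MCL0020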
#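 material = U2OS cells stably expressing human melanocortin 4 receptor (MC4R) | also added = Melanotan II challenge | dosing = single nominal compound dose of 6.5 µM | detection = TR-FRET with Eu-cAMP and labeled anti-cAMP, 671 nm | replication = singlicate | timing = compound 30 min, challenge 1 h, detection 1 h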
# MC4R barr agon: human MC4R agonism via beta-arrestin; activation, % at 8.9 µM; P32245; U2OS MC4R beta-arrestin complementation, luminescence; percent of melanotan II response, DMSO zero; 360,000 tested, 0.98% active; AID 540308;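 active = activation above a per-plate cutoff, the mean activation of sample wells on that plate plus 3 SD, cut at about 8% in these data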
# CendR NRP1 mod: alters CendR peptide binding to human NRP-1. O14786. FAM-RPARPAR peptide binding to NRP-1, fluorescence polarization. inhibition, % at 25 µM. 360,000 tested, 0.85% active. AID 602438;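 active = inhibition or corrected inhibition above about 18%, plus a signal ratio from 0.5 to 1.5, limit read from the data, passing the limit was not always enough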
# UUG fidelity: modulators of start codon recognition fidelity in yeast. activity score, % at 18.7 µM. S. cerevisiae UUG-firefly luciferase reporter, luminescence/redox ratio. 350,000 compounds, 0.13% hits;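 active means replicate mean at a twofold rise or more, about +100% in these data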;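 further: firefly luciferase made from a UUG start codon reports start codon fidelity; reporter light over untreated wells divided by growth signal over untreated wells; some hits fall short of that in this replicate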
# Numbers without * were called inactive; / = no result.
SMILES,ARFGAP1 inhibitor,ASAP1 inh,MC4R antag cAMP,MC4R barr agon,CendR NRP1 mod,UUG fidelity
CN(c1cccc(Cl)c1)S(=O)(=O)c1cccc(C(=O)NCc2ccncc2)c1,-2,6,9,0,24*,-11
CN(c1ccccc1)S(=O)(=O)c1cccc(C(=O)NCc2ccccc2)c1,-1,-1,14,0,2,-5
O=C(Cc1ccncc1)Nc1ccc2c(c1)[C@@H]1C[C@H](CC(=O)NC3CCCCC3)O[C@H](CO)[C@@H]1O2,/,/,/,/,/,-11
O=C(C[C@@H]1C=C[C@H](NC(=O)c2ccccn2)[C@@H](CO)O1)NCc1cccc(F)c1,/,/,/,/,/,0
Cc1ccc(OCC(=O)NN=C2c3ccccc3-c3ccccc32)cc1,-10,6,-4,8.6*,-2,-16
Cc1ccc(NN=C2c3ccccc3-c3ccccc32)cc1,4,14,14,8.4*,3,/
c1ccc(NN=C2c3ccccc3-c3ccccc32)cc1,7,4,4,0,1,-7
Cc1ccc(OCC(=O)NN2C(=O)c3ccccc3C2=O)cc1,5,0,-1,-1,-3,-22
O=S(=O)(N[C@H]1CC[C@@H](CCn2cc(-c3cccc(F)c3)nn2)O[C@@H]1CO)c1ccc(F)cc1,/,/,/,/,/,-14
C[C@@H]1CN([C@@H](C)CO)S(=O)(=O)c2ccc(-c3ccc(C#N)cc3)cc2O[C@@H]1CN(C)C,/,/,/,/,/,-2
O=C(CCS(=O)(=O)c1ccc(Br)s1)N1CCc2ccccc21,-1,-3,3,1,34*,/
O=C(CS(=O)(=O)c1ccccc1)N1CCc2ccccc21,9,-1,13,-2,-2,/
O=C(CSc1n[nH]c(=O)[nH]c1=O)Nc1ccc(Br)cc1Br,0,6,3,-2,31*,-32
Cc1noc(C)c1S(=O)(=O)Nc1ccc2c(c1)C(=O)N([C@H](C)CO)C[C@@H](C)[C@@H](CN(C)Cc1ccncc1)OCCCC[C@H](C)O2,/,/,/,/,/,5
CCOC(=O)c1ccc(N2C(=O)CC(N3CCCC(C)C3)C2=O)cc1 (centres undefined),-3,0,29*,2,3,-20
CO[C@H]1CN(C)C(=O)c2cc(NC(=O)Nc3cccc(Cl)c3)ccc2OC[C@@H](C)N(C)C[C@@H]1C,/,/,/,/,/,15
COc1ccc(C2CC(=O)C=C(NC3CCCC3)C2)cc1 (centres undefined),12,-4,4,4,29*,10
O=C(NCCO)c1ccc2c(c1)S(=O)(=O)c1ccccc1C2=O,-2,15,-8,-1,22*,-21
Cc1ccc(CNC(=O)c2ccc3c(c2)S(=O)(=O)c2ccccc2C3=O)o1,6,-3,2,1,4,1
C[C@@H]1CN([C@@H](C)CO)C(=O)c2cc(Br)cnc2O[C@@H]1CN(C)C(=O)C1CC1,/,/,/,/,/,-5
Cc1noc(C)c1S(=O)(=O)Nc1ccc2c(c1)C(=O)N([C@H](C)CO)C[C@H](C)[C@@H](CN(C)S(=O)(=O)c1ccc(F)cc1)OCCCC[C@H](C)O2,/,/,/,/,/,83
O=C(O)CCSc1nnc(COc2cccc3cccnc23)n1-c1ccccc1,-3,12,4,1,26*,/
Cc1ccc(C(=O)N/C(=C\c2ccc(-c3ccccc3[N+](=O)[O-])o2)C(=O)NCCCN2CCOCC2)cc1,6,10,-8,0,26*,16
Cc1ccc(C(=O)N/C(=C\c2cn(C)c3ccccc23)C(=O)NCCCN2CCOCC2)cc1,6,-5,-2,-2,-5,/
COC(=O)n1c(=O)oc2ccccc21,6,0,-2,-1,26*,-10
Cc1ccc(C(=O)O)cc1-c1ccc(/C=C2\SC(=O)N(CC(=O)Nc3ccccc3)C2=O)o1,10,4,32*,0,-109,10
Cn1cnc(S(=O)(=O)N[C@@H]2C=C[C@@H](CC(=O)NCC3CCCCC3)O[C@H]2CO)c1,/,/,/,/,/,-5
O=C1NC(c2ccccc2)=C(c2nc3ccccc3s2)C(c2ccc(O)cc2)N1 (centres undefined),/,/,18,63*,-2,-1
O=C1NC(c2ccccc2)=C(c2ccc3ccccc3n2)C(c2ccccc2)N1 (centres undefined),-7,7,20,-2,10,-15

# Shown bar-delimited: entries from further up
smiles | ARFGAP1 inhibitor | ASAP1 inh | MC4R antag cAMP | MC4R barr agon | CendR NRP1 mod | UUG fidelity
Cc1noc(C)c1S(=O)(=O)Nc1ccc2c(c1)C(=O)N([C@H](C)CO)C[C@H](C)[C@@H](CN(C)S(=O)(=O)c1ccc(F)cc1)OCCCC[C@H](C)O2 | / | / | / | / | / | 83
COC(=O)n1c(=O)oc2ccccc21 | 6 | 0 | -2 | -1 | 26* | -10
O=C(O)CCSc1nnc(COc2cccc3cccnc23)n1-c1ccccc1 | -3 | 12 | 4 | 1 | 26* | /
Cn1cnc(S(=O)(=O)N[C@@H]2C=C[C@@H](CC(=O)NCC3CCCCC3)O[C@H]2CO)c1 | / | / | / | / | / | -5
